# Earlier results in patent US12139542B2, “Inhibitors of aortic carboxypeptidase-like protein (ACLP)” (TRUSTEES OF BOSTON UNIVERSITY, priority 2014, dated 2024).
# Conditions: PEGylated vs native alpha-interferon; cited from earlier work
substance,measurement,value
Pegasys: PEGylated interferon alpha2a,antiviral activity relative to the native protein,7%
